Series [1] deals with Caco-2 cell monolayers. Particulars: literature; cited from earlier work.
The subject of series [2] is Caco-2 cell monolayers. Particulars: 180 min.

Structures are written as SMILES. Read-outs that look alike come from different tables or passages of the source.

Data on one compound can be found in patent publication US12274706B2 (MEDAC GESELLSCHAFT FUER KLINISCHE SPEZIALPRAEPARATE MBH, priority 2017, dated 2025).

On to `O=C(O)c1cc(N=Nc2ccc(S(=O)(=O)Nc3ccccn3)cc2)ccc1O` [sulfasalazine, 2-hydroxy-5-[2-[4-[(2-pyridinylamino)sulfonyl]phenyl]diazenyl]-benzoic acid], for which the “permeability through Caco-2 cell monolayers” value with Caco-2 cell monolayers [1] is reported as “low permeability”. Besides, the Cumulative drug transport in the series on Caco-2 cell monolayers [2] (200 μg/mL, direction ab) is listed as 3.81 μg/cm^2; with Caco-2 cell monolayers [2] (200 μg/mL, direction ba) it was 14.81 μg/cm^2; in the series with Caco-2 cell monolayers [2] (2000 μg/mL, direction ab), 9.86 μg/cm^2; in the series with Caco-2 cell monolayers [2] (2000 μg/mL, direction ba), 32.07 μg/cm^2.
